The target in one test is ORL1 receptor (Homo sapiens, UniProt P41146). The test is described as follows: ORL1 receptor binding assay with 3H-nociceptin/Orphanin FQ. The following applies: membranes of recombinant CHO-ORL1 cells; for Ki: read-out: ORL1 Ki, 0.5 nM 3H-nociceptin/Orphanin FQ; for ORL1 % inhibition [1 μM]: c=1 μM.
A further test deals with μ-opiate receptor (Homo sapiens, UniProt P35372). The experiment in a line: Binding to μ-opiate receptor. The conditions noted are these: for Ki: read-out: μ Ki; for μ % inhibition [1 μM]: c=1 μM.
The test system of a further test is mice. The experiment in a line: Analgesic testing by tail flick test in mice. The following applies: dose 10 mg/kg.

By UniProt entry, the sequences of proteins in these tests, tags left out. Where a name states a change or a piece, a line headed by the entry shows the natural chain unless it says otherwise.
UniProt P41146: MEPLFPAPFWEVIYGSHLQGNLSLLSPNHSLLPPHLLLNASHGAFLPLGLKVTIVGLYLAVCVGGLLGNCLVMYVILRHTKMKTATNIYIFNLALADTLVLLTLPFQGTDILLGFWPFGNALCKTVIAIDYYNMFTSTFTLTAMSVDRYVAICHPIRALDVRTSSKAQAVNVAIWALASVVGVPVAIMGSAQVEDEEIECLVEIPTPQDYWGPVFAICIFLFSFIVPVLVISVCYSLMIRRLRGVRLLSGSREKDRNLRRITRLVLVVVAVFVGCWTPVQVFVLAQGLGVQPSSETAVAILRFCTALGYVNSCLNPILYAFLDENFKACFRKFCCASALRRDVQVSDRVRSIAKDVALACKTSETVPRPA
UniProt P35372, whole entry, looked up: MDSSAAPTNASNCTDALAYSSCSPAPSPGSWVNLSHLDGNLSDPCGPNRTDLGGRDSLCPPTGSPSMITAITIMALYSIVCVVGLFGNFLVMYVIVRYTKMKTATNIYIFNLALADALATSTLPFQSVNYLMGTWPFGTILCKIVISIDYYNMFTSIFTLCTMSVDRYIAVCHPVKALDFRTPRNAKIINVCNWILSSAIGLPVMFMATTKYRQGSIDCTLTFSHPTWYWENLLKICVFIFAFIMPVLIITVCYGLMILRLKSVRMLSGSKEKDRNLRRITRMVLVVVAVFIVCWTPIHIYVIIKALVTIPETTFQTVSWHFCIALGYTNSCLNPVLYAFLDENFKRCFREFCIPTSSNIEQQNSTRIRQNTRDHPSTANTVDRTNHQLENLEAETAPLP

As usually defined, the Ki is the dissociation constant of the complex between target and ligand, obtained from inhibition or displacement.

Take `CC(NC(=O)Cc1c[nH]c2ccccc12)C(=O)NC1CCC(c2ccccc2)(N(C)C)CC1` (single isomer, unassigned): the values for the Ki on ORL1 receptor and on μ-opiate receptor were 31 nM and 12.4 nM, respectively.

In the case of `CC(NC(=O)Cc1c[nH]c2ccccc12)C(=O)NC1CCC(c2ccccc2)(N(C)C)CC1.Cl` (stereo not shown), the “ORL1 % inhibition [1 μM]” value on ORL1 receptor was determined as 32%. The “μ % inhibition [1 μM]” value at μ-opiate receptor worked out at 50%.

As to `CC(C)CC(NC(=O)Cc1c[nH]c2ccccc12)C(=O)NC1CCC(c2ccccc2)(N(C)C)CC1.Cl` (stereo not shown), the “ORL1 % inhibition [1 μM]” value on ORL1 receptor is listed as 43%. The “μ % inhibition [1 μM]” value on μ-opiate receptor was found to be 71%. Further, in the test with mice, the “Tail flick (mouse, i.v.) % inhibition (dose [mg/kg])” value was 69% (10).

For the compound `CC(NC(=O)Cc1c[nH]c2ccccc12)C(=O)NC1CCC(c2ccccc2)(N(C)C)CC1.Cl` (single isomer, unassigned), in the test with mice, the “Tail flick (mouse, i.v.) % inhibition (dose [mg/kg])” value is reported as 60% (10).

For the compound `CC(C)CC(NC(=O)Cc1c[nH]c2ccccc12)C(=O)NC1CCC(c2ccccc2)(N(C)C)CC1` (stereo not shown), the Ki turned out to be 13 nM on ORL1 receptor and 3.2 nM at μ-opiate receptor.

Values taken from patent US7348354B2, “Cyclohexylurea compounds” (dated 2008).
